# Assay results reported in patent US20260000700A1, “TARGETED LINEAR CONJUGATES COMPRISING POLYETHYLENEIMINE AND POLYETHYLENE GLYCOL AND POLYPLEXES COMPRISING THE SAME” (TARGIMMUNE THERAPEUTICS AG, priority 2022, published 2026).
# How the values were obtained:
# [1] = Polyplex size distribution and PDI by DLS; type: physicochemical; details: pH 7.2
# [2] = Polyplex ζ-potential (PALS/ELS); type: physicochemical; details: pH 7.2
substance,measurement,setting,value
Me-LPEI−/−[N3:DBCO]-PEG36-DUPA [Me-LPEI-l-[N3:DBCO]-PEG36-DUPA],"DLS (nm), DTS1070",[1],140 nm
same,"PDI, DTS1070",[1],0.132
same,"ζ- pot (mV), DTS1070",[2],28.2 mV
